# Measured values taken from patent publication US5049685A, “Nuclear substituted salicylic acids and their salts” (Sanko Kaihatsu Kagaku Kenkyusho, priority 1988, dated 1991).
# Assay: Solubility in toluene (four-stage evaluation)
# Assay type: physicochemical
substance,measurement,value
"zinc 3-methyl-5-(α, α-dimethylbenzyl)salicylate [(2) Zinc, reference compound]",Solubility in Toluene,Δ (solubility =not less than 5% to less than 20%)
